The results in this text go back to patent publication US20220296627A1, “Cytidine Derivatives and Methods of Forming Cytidine Derivatives” (Aenorasis Commercial Company of Pharmaceutical and Medical …, priority 2019, published 2022).

Format in all cases: cell-based
Experiment [1] concerns A549/WT wild type human lung adenocarcinoma cell line. In words: Cell growth assay (SRB) in A549/WT. To be noted: for IC50: 4-N-acyl and 4-N-phosphoryl derivatives (Table 4); for Ratio of IC50 in the presence of dipyridamole / IC50 in the absence of dipyridamole: 4-N-acyl and 4-N-phosphoryl derivatives (Table 5). As for the experimental part: (§1) Biological activities of the Gemcitabine derivative (which may be referred to as analogues) described above were evaluated with two assays: • 1. Cell growth assay using the SRB assay in cell lines A549/WT, SW1573/WT, PANC-01 and BXPC-3. • 2. MTT assay in human bladder cancer cell line T-24
(§2) The following cell lines were tested: • A549/WT —wild type human lung adenocarcinoma cell line (1) • SW1573/WT —wild type non-small lung human cell line (2), • PANC-01—human pancreatic cancer cell line (3) • BXPC-3 -epithelial human pancreatic adenocarcinoma cells (4).
(§3) Dipyridamole inhibits adenosine uptake by erythrocytes platelets and endothelial cells in vitro and in vivo. Thus, the present inventors recruited dipyridamole as an inhibitor of the nucleoside transporters of the tumour cells to observe the behaviour of the presently described Gemcitabine derivatives.
(§4) From the IC50 of each compound in the presence of dipyridamole, by dividing it with the IC50 of each compound in the absence of dipyridamole, the present inventors calculated a ratio that compared the efficacy of the analogous presence of dipyridamole.
(§5) Ratio=IC50 in the presence of dipyridamole/IC50 in the absence of dipyridamole • FIG. 10. Ratio of IC50 of 4-N-acyl and 4-N-phosphoryl derivatives in the presence of, compared to in the absence of, dipyridamole, in four cell lines

Experiment [2] deals with BXPC-3 epithelial human pancreatic adenocarcinoma cells. In words: Cell growth assay (SRB) in BXPC-3. To be noted: for IC50: 4-N-acyl and 4-N-phosphoryl derivatives (Table 4); for Ratio of IC50 in the presence of dipyridamole / IC50 in the absence of dipyridamole: 4-N-acyl and 4-N-phosphoryl derivatives (Table 5). As for the experimental part: as §1, §2, §3, §4, §5
The test system of experiment [3] is SW1573/WT wild type non-small lung human cell line. In words: Cell growth assay (SRB) in SW1573/WT. To be noted: SW 1573/WT; for IC50: 4-N-acyl and 4-N-phosphoryl derivatives (Table 4); for Ratio of IC50 in the presence of dipyridamole / IC50 in the absence of dipyridamole: 4-N-acyl and 4-N-phosphoryl derivatives (Table 5). As for the experimental part: as §1, §2, §3, §4, §5

Experiment [4] has as its system PANC-01 human pancreatic cancer cell line. In words: Cell growth assay (SRB) in PANC-01. To be noted: for IC50: 4-N-acyl and 4-N-phosphoryl derivatives (Table 4); for Ratio of IC50 in the presence of dipyridamole / IC50 in the absence of dipyridamole: 4-N-acyl and 4-N-phosphoryl derivatives (Table 5). As for the experimental part:
as §1, §2, §3, §4, §5

Turning to `CCOP(=O)(Nc1ccn(C2OC(CO)C(O)C2(F)F)c(=O)n1)OCC` (stereo not shown), the IC50 amounted to 400 nM in experiment [1], 190 nM in experiment [2], 240 nM in experiment [3] and 820 nM in experiment [4]. Also, the “Ratio of IC50 in the presence of dipyridamole / IC50 in the absence of dipyridamole” value in experiment [1] is recorded as 6.2; in experiment [2], 13; in experiment [3] it was 10; in experiment [4] it was 3.

As to `O=c1nc(NP(=O)(O)O)ccn1C1OC(CO)C(O)C1(F)F` (stereo not shown), the IC50 in experiment [1] stood at 16 nM; in experiment [2] it was 14 nM; in experiment [3] it was 14 nM; in experiment [4], 55 nM. Further, the “Ratio of IC50 in the presence of dipyridamole / IC50 in the absence of dipyridamole” value in experiment [1] stood at 41; in experiment [2], 50; in experiment [3], 50; in experiment [4], 123.

As a reminder, the IC50 is the concentration that inhibits the measured activity by half. A high value points to weaker potency.
